Values of other authors, collected in patent publication US5070074A, “Hypoglycemic and growth-promoting polypeptides isolated from bacitracin” (Protor Co., priority 1990, dated 1991).

Conditions: destruction by protease insulinase; cited from earlier work

insulin
t1/2 of destruction of insulin after injection: approximately 40 minutes
